Measured values published in ChEMBL document CHEMBL1154181 (J Med Chem, 2009).

Tested on: Mus musculus
Assay: Antinociceptive activity against radiant heat-induced nociception in icv dosed CD1 mouse assessed as increase in tail withdrawal latency measured after 15 to 120 mins postdose by tail flick test
Conditions: strain CD1, Tail

## C=Cc1c(C)nn(CCC(=O)N2CCN(c3ccc(C)cc3)CC2)c(=O)c1N
  ED50: 31.8 µg
